Values of other authors, collected in PMC8477420 (ChemMedChem, 2020).

Chains of the proteins cited; added tags and fusions are not shown.
UniProt Q00987, whole entry: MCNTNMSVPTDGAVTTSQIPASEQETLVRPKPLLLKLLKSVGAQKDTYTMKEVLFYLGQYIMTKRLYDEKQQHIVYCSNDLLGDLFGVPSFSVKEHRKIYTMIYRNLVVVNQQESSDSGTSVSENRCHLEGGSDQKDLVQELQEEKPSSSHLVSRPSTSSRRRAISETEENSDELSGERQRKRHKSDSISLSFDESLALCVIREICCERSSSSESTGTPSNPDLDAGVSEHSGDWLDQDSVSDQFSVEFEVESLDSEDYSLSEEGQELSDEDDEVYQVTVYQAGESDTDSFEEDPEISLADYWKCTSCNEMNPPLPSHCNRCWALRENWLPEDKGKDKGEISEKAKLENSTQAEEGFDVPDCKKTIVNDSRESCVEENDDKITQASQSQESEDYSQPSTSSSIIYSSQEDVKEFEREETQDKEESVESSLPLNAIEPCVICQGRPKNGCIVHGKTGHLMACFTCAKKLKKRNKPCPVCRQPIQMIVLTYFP

Target: HDM2 (Homo sapiens, UniProt Q00987)

inhibition of HDM2: nanomolar inhibitor
SMILES: COc1ccc(C2=N[C@@H](c3ccc(Cl)cc3)[C@@H](c3ccc(Cl)cc3)N2C(=O)N2CCNC(=O)C2)c(OC(C)C)c1 [Nutlin-3a]
